In patent US20250051264A1, “CANNABIDIOL DERIVATIVE, PREPARATION METHOD THEREFOR AND APPLICATION THEREOF” (DEYI PHARMACEUTICAL LTD., priority 2021, published 2025):

Test system: dopamine in striatum
Test: Content of dopamine in brain striatum by the kit method (ELISA) in the MPTP mouse model of Parkinson's disease
Format: in vivo, C57/BL6 mice
Settings: after 14 days intragastric treatment (compound 3 100 mg/kg; amantadine 40 mg/kg); blank 0.71 ± 0.16, model 0.30 ± 0.07
Description: (2) MPTP (25 mg/kg) was intraperitoneally injected once a day for 7 consecutive days. The blank group was left untreated.
(3) After modeling, administration was started. The positive drug group was subjected to intragastric administration of amantadine (40 mg/kg), and the compound group was subjected to intragastric administration of compound 3 (prepared in Example 1) at a determined dose (100 mg/kg). The intragastric administration was performed once a day for 14 consecutive days.
After the mice were sacrificed quickly, the brains of the mice were taken and the cerebral palliums (CPs) of the mice were isolated. After exposing the brain striatum of the mice, the striatum was weighed and homogenized after adding PBS according to a proportion. The supernatant was isolated and detected for the content of dopamine in the brain striatum. […]
(4) The microplate was shaken on a shaker for 30 s, left to stand at 37° C. for 30 min, and subsequently measured for absorbance at 562 nm. A standard curve was plotted with the absorbance value as an abscissa and the protein concentration (μg/μL) as an ordinate.
(5) 2 μL of test protein and 18 μL of PBS (10-fold dilution) were added to the microplate, 160 μL of BCA working solution was added, and the microplate was shaken on a shaker for 30 s, left to stand at 37° C. for 30 min, and subsequently measured for the absorbance at 562 nm. […]

NC12CC3CC(CC(C3)C1)C2 [Positive drug, amantadine, reference compound]
DA content of dopamine in striatum after treatment: 0.61 ± 0.12 ng/mg
